Literature values as cited in US20220202845A1, “METHODS AND COMPOSITIONS FOR TREATING CANCER” (Fred Hutchinson Cancer Research Center, priority 2018, published 2022).

Protein sequences, listed by entry. Tags and fused reporters are not part of them.
UniProt Q16539, whole entry: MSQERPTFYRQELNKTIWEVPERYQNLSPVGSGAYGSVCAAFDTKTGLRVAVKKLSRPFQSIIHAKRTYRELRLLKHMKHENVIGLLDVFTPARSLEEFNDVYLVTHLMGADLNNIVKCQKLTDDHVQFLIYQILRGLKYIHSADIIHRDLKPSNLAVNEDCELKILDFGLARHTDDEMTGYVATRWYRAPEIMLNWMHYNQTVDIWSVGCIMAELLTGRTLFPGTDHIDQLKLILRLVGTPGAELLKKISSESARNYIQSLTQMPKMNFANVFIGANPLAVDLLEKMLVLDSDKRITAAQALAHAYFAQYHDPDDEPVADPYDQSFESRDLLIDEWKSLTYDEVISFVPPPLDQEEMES

Target: p38α (Homo sapiens, UniProt Q16539)
Conditions: fold selective over p38β; cited from earlier work

For Cn1c(=O)c(Oc2ccc(F)cc2F)cc2cnc(NC(CCO)CCO)nc21 [Pamapimod], the “Selectivity for p38α over p38β” value is given as “p38α34X selective over p38β”.
